From patent US20190209472A1, “FORMULATIONS FOR DERMAL DELIVERY OF POLYMER CONJUGATES OF INDOLOCARBAZOLE COMPOUNDS WITH REDUCED EXPOSURE” (Sienna Biopharmaceuticals, Inc., priority 2017, published 2019)

Tests used:
[1] = system: subjects with pruritus associated with psoriasis vulgaris; experiment: Phase 1b maximal use study: ECG including QTcF assessment; type: in vivo, human
Method: On Study Days 1 and 29 subjects will be asked to assume the supine position and remain quiet but awake for at least 20 minutes around each nominal electrocardiogram (ECG) extraction point (15 minutes before the time point until 5 minutes after each time point). Once the ECG extraction is started (time: 0 h), the subject should remain at rest in the supine position for the next 5 minutes, with the exception of PK draws. The extraction time points from the continuous ECG monitoring of the QT interval corrected for heart rate (QTc) analysis are as follows: predose (within 1 hour of the start of dosing), and 0.5, 0.75, 1, 2, 4, 8, and 12 hours after the end of the SNA-120 application.
The average of triplicate ECG measurements from each time point will serve as each subject's QT value. Electrocardiograms will be measured using semi-automated methods for the ECG intervals. Annotations will be made on the global superimposed median beat. The Mortara eScribe software (or equivalent) will be used for the measurement. Interpretations for each ECG will be made by a board-certified cardiologist.

[2] = system: subjects with pruritus associated with psoriasis vulgaris
[3] = system: subjects with pruritus associated with psoriasis vulgaris; experiment: Phase 1b maximal use study: adverse events and tolerability; conditions: in vivo
[4] = system: patients with stable psoriasis vulgaris; conditions: CT327 treatment group
[5] = over 12 hours on Day 1, Day/Hour 1/0.75
[6] = over 12 hours on Day 1, Day/Hour 1/12
[7] = over 12 hours on Day 29, Day/Hour 29/1
[8] = over 12 hours on Day 29, Day/Hour 29/8
[9] = over 12 hours on Day 29, Day/Hour 29/12

Which ECG effect ([1]; 30 patients, up to 15 time points) does the source give for “(9S, 10R, 12R)-10-(3′-mPEG2000-1′,3′-oxazolidine-2′,4′-dione)-2,3,9,10,11,12-hexahydro-9-methyl-1-oxo-9,12-epoxy-1H-diindolo[1,2,3-fg:3′,2′,1′-k,l]pyrrolo[3,4-i][1,6] benzodiazocine] [CT327]” here?
Its ECG effect is “no associated clinically significant ECG changes”.

And the “Holter ECG PR: Maximum mean (SD) change from baseline” value [1, 5]?
Its value is 2.33 (6.66) msec.

And the “Holter ECG QRS: Maximum mean (SD) change from baseline” value [1, 5]?
Its value is 1.13 (3.85) msec.

What about the “Holter ECG HR: Minimum mean change from baseline” value ([1]; over 12 hours on Day 1, Day/Hour 1/1) of the same substance?
Its value is −5.12 bpm.

And the “Holter ECG QTcF: Maximum mean (SD) change from baseline” value ([1]; over 12 hours on Day 1, Day/Hour 1/2)?
Its value is 2.93 (9.63) msec.

And the “Holter ECG QRS: Minimum mean change from baseline” value ([1]; over 12 hours on Day 1, Day/Hour 1/8)?
The value was -1.32 ms.

And the “Holter ECG PR: Minimum mean change from baseline” value [1, 6]?
The value was -1.31 ms.

And the “Holter ECG QTcF: Minimum mean change from baseline” value [1, 6]?
Its value is -5.12 ms.

And the “Holter ECG HR: Maximum mean (SD) change from baseline” value ([1]; over 12 hours on Day 1, Day/Hour 1/12^)?
The value was 8.14 (5.68) bpm.

What about the “Holter ECG PR: Maximum mean (SD) change from baseline” value ([1]; over 12 hours on Day 29, Day/Hour 29/0.5) of the same substance?
The value was 3.90 (8.61) msec.

What about the “Holter ECG QTcF: Maximum mean (SD) change from baseline” value ([1]; over 12 hours on Day 29, Day/Hour 29/0.75) of the same substance?
The value was 5.98 (10.45) msec.

And the “Holter ECG HR: Minimum mean change from baseline” value [1, 7]?
Its value is −4.25 bpm.

And the “Holter ECG QRS: Maximum mean (SD) change from baseline” value [1, 7]?
The value was 1.46 (5.23) msec.

What about the “Holter ECG HR: Maximum mean (SD) change from baseline” value [1, 8] of the same substance?
Its value is 9.50 (9.73) bpm.

What about the “Holter ECG QRS: Minimum mean change from baseline” value [1, 8] of the same substance?
The value was -1.90 ms.

What about the “Holter ECG PR: Minimum mean change from baseline” value [1, 9] of the same substance?
Its value is 0.39 ms.

What about the “Holter ECG QTcF: Minimum mean change from baseline” value [1, 9] of the same substance?
Its value is -4.97 ms.

And the “Standard ECG PR: Maximum mean (SD) change from baseline” value ([1]; standard ECG, Day 8)?
Its value is 2.4 (13.5) msec.

What about the “Standard ECG HR: Maximum mean (SD) change from baseline” value ([1]; standard ECG, Day 8, 0.5% (w/w) SNA-120) of the same substance?
The value was 3.1 (11.3) bpm.

What about the “Standard ECG PR: Minimum mean change from baseline” value ([1]; standard ECG, Day 15) of the same substance?
The value was -1.5 ms.

And the “Standard ECG QRS: Minimum mean change from baseline” value ([1]; standard ECG, Day 15)?
The value was -0.5 ms.

What about the “Standard ECG QTcF: Minimum mean change from baseline” value ([1]; standard ECG, Day 15) of the same substance?
The value was 1.7 ms.

What about the “Standard ECG QRS: Maximum mean (SD) change from baseline” value ([1]; standard ECG, Day 43) of the same substance?
Its value is 4.0 (6.6) msec.

And the “Standard ECG QTcF: Maximum mean (SD) change from baseline” value ([1]; standard ECG, Day 43)?
Its value is 9.1 (16.4) msec.

And the “Standard ECG HR: Minimum mean change from baseline” value ([1]; standard ECG, Day 43, 0.5% (w/w) SNA-120)?
The value was −0.1 bpm.

What about the “AE related to study drug: [events]” value ([2]; N = 30) of the same substance?
Its value is 1.

What about the “AE related to study drug: subjects, %” value ([2]; N = 30) of the same substance?
The value was 3.3%.

And the “AE resulting in discontinuation: subjects, %” value ([2]; N = 30)?
The value was 0 (0) %.

And the “AE: [events]” value ([2]; N = 30)?
Its value is 12.

And the “AE: subjects, %” value ([2]; N = 30)?
Its value is 30%.

What about the “Number of adverse events” value ([2]; N = 30) of the same substance?
The value was 12.

What about the “SAE: subjects, %” value ([2]; N = 30) of the same substance?
Its value is 0 (0) %.

And the “Severe AE: subjects, %” value ([2]; N = 30)?
The value was 0 (0) %.

What about the “Subjects reporting adverse events” value ([2]; N = 30) of the same substance?
Its value is 9.

And the “Discontinued due to AE, (%)” value ([2]; Phase 1b maximal use study, 30 subjects treated)?
Its value is “(0) %”.

And the “Adverse events deemed related to study drug” value ([2]; mild pruritus)?
Its value is “one”.

And the “Overall safety parameters (laboratory assessments, ECG, QTc duration, AEs)” value [3]?
Its value is “no associated clinically relevant changes”.

What about the Tolerability [3] of the same substance?
Its Tolerability is “well tolerated”.

And the “Occurrences of headache (TEAE)” value [4]?
Its value is 5.

What about the “Patients reporting headache (TEAE)” value [4] of the same substance?
The value was 25%.

And the “Patients reporting psoriasis as a TEAE” value [4]?
The value was 16.7%.

And the “TEAEs of mild maximum intensity” value [4]?
Its value is 8.

What about the “TEAEs of moderate maximum intensity” value [4] of the same substance?
The value was 2.

And the “Number of TEAEs” value ([4]; n=12)?
Its value is 10.

What about the “Patients reporting TEAEs” value ([4]; n=12) of the same substance?
Its value is 50%.

And the “Mild TEAE, number of events [m]” value ([4]; topical ointment bid)?
The value was 8.

And the “Mild TEAE, number of patients experiencing the event” value ([4]; topical ointment bid)?
The value was 5.

What about the “Mild TEAE, percentage of patients with the event” value ([4]; topical ointment bid) of the same substance?
Its value is 41.7%.

And the “Moderate TEAE, number of events [m]” value ([4]; topical ointment bid)?
The value was 2.

What about the “Moderate TEAE, number of patients experiencing the event” value ([4]; topical ointment bid) of the same substance?
The value was 2.

What about the “Moderate TEAE, percentage of patients with the event” value ([4]; topical ointment bid) of the same substance?
Its value is 16.7%.

And the “Related TEAE, number of events [m]” value ([4]; topical ointment bid)?
The value was 1.

What about the “Related TEAE, number of patients experiencing the event” value ([4]; topical ointment bid) of the same substance?
Its value is 1.

What about the “Related TEAE, percentage of patients with the event” value ([4]; topical ointment bid) of the same substance?
Its value is 8.3%.

What about the “SAE, number of patients experiencing the event” value ([4]; topical ointment bid) of the same substance?
Its value is 0.

What about the “Severe TEAE, number of patients experiencing the event” value ([4]; topical ointment bid) of the same substance?
The value was 0.

And the “TEAE leading to discontinuation, number of patients experiencing the event” value ([4]; topical ointment bid)?
The value was 0.

And the “TEAE, number of events [m]” value ([4]; topical ointment bid)?
Its value is 10.

And the “TEAE, number of patients experiencing the event” value ([4]; topical ointment bid)?
Its value is 6.

And the “TEAE, percentage of patients with the event” value ([4]; topical ointment bid)?
The value was 50.0%.
